Source: patent publication US20190241661A1

Target: combination of trastuzumab and pertuzumab (Homo sapiens (Human)) [IgG part: P0DOX5]
Test: flow cytometry; BT-474 cells with 10 µg/mL antibody, then 10 µg/mL C1q, PE-labeled anti-C1q antibody

PE-signal (geomean): 2160 geomean PE
Substance: complement factor C1q (Sigma Aldrich, Cat. No. C1740) (from UniProt P02745 23-245; P02746 28-253; P02747 29-245)
